# The entries are a selection whose mix differs from that of the whole data set. Activity calls are given as the source filed them.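 Rule for the calls: active = inhibition above the batch mean plus 3 SD and confirmed as a hit by visual image inspection (cut at about 30% in these data, passing the limit was not always enough); inconclusive = above the inhibition threshold but rejected on visual inspection; inactive = the rest.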
# Assay: modifiers of F-actin cytoskeleton organization, primary screen, imaging, HUVEC, phalloidin staining, high-content imaging (AID 836)
# Settings: HUVEC TNFa F-actin phalloidin imaging, at 2 µM, stronger effect = higher value
row,SMILES,inhibition
1,COc1ccccc1OP(C)(=O)Nc1ccc(C)c(C)c1 (stereo not drawn),inactive: 11.7%
2,Cc1nc2ccc3ccccc3c2o1.O=[N+]([O-])c1cc([N+](=O)[O-])c(O)c([N+](=O)[O-])c1,inactive: 7.5%
3,CN(C)CCOC(=O)C(O)(c1ccccc1)C1CCCC1 (stereo not drawn),inactive: 1.5%
4,CP(=O)(Nc1ccccn1)Oc1ccccc1 (stereo not drawn),inactive: 25.1%
5,COc1ccccc1OP(C)(=O)Nc1ccc(C)cc1C (stereo not drawn),inactive: -1.4%
6,CCc1ccc(OP(C)(=O)O)cc1,inactive: 3.4%
7,Cc1c(NP(C)(=O)Oc2ccc(C(C)C)cc2)c(=O)n(-c2ccccc2)n1C (stereo not drawn),inactive: 6.7%
8,COc1ccccc1OP(C)(=O)Nc1c(C)n(C)n(-c2ccccc2)c1=O (stereo not drawn),inactive: -29.4%
9,CP(=O)(Oc1ccccc1)N1CCOC1=O (stereo not drawn),inactive: -13.4%
10,CCN(CC)CC(O)COC(=O)C(O)(c1ccccc1)C1CCCCC1 (stereo not drawn),inactive: 29.1%
11,CC(C)(C)c1ccc(OP(C)(=O)O)cc1,inactive: -2.4%
12,CP(=O)(Nc1ccc(Cl)cc1)Oc1ccc(F)cc1 (stereo not drawn),inactive: -8.1%
13,CP(=O)(OC12CC3CC(CC(C3)C1)C2)OC12CC3CC(CC(C3)C1)C2,inactive: -8.8%
14,CN(C)CCOC(=O)C(O)(c1ccccc1)C1CCCCC1 (stereo not drawn),inactive: -5.6%
15,COc1ccc(OP(C)(=O)Nc2cccc(Br)c2)cc1 (stereo not drawn),inactive: 8.5%
16,CCOP(C)(=S)SCC(=O)NC(C)(CC)C(=O)O (stereo not drawn),inactive: 3.7%
17,CP(=O)(Nc1ccc2c(c1)OCCO2)Oc1ccccc1 (stereo not drawn),inactive: 6.6%
18,CP(=O)(Nc1ccccc1F)Oc1ccccc1 (stereo not drawn),inactive: 23.8%
19,CP(=O)(Nc1ccccc1)Oc1ccc(F)cc1 (stereo not drawn),inactive: 5.8%
20,CCN(CC)CCCOC(=O)C(O)(c1ccccc1)C1CCCCC1 (stereo not drawn),inactive: -2.5%
21,Cc1cc(C)cc(OP(C)(=O)Nc2ccc(C)cc2C)c1 (stereo not drawn),inactive: 8.9%
22,Cc1ccc(C)c(NP(C)(=O)Oc2ccccc2)c1 (stereo not drawn),inactive: -2.1%
23,Cc1cc(C)cc(OP(C)(=O)Nc2ccccn2)c1 (stereo not drawn),inactive: -3.4%
24,Cc1nc2ccc3ccccc3c2s1.O=[N+]([O-])c1cc([N+](=O)[O-])c(O)c([N+](=O)[O-])c1,inactive: -3.3%
25,COc1ccccc1OP(C)(=O)Nc1c(C)cccc1C (stereo not drawn),inactive: 28.3%
26,CP(=S)(Nn1cnnc1)Oc1ccccc1 (stereo not drawn),inactive: 9.2%
27,CP(=O)(NC(=O)Nc1ccccc1)Oc1ccccc1 (stereo not drawn),inactive: 1.5%
28,CP(=O)(Nc1ccccn1)Oc1ccc(Cl)cc1 (stereo not drawn),inactive: 1.9%

# — PubChem BioAssay AID836 (Columbia University Molecular Screening Center, 2007)
